pIC50: −log10 of the molar value.
Target: T1, HCV NS3/4A protease complex (BMS strain) (UniProt P27958)
T1 construct: for H77 and J4L6S; fused on or other part: Probably a three-lysine solubilising tail at the C-terminus of NS4A and a His tag from pET21b (Ni-NTA purification); These are printed for the H77 and J4L6S constructs and only inferred for BMS
Experiment: Recombinant HCV NS3/4A protease complex FRET peptide assay (BMS strain)
Assay type: biochemical, Hepatitis C virus (genotype 1a
Conditions: read-out: IC50 (uuM); NS3/4A BMS strain; activity range class
Description: Serum from an HCV-infected patient was obtained from Dr. T. Wright, San Francisco Hospital. An engineered full-length cDNA (compliment deoxyribonucleic acid) template of the HCV genome (BMS strain) was constructed from DNA fragments obtained by reverse transcription-PCR (RT-PCR) of serum RNA (ribonucleic acid) and using primers selected on the basis of homology between other genotype 1a strains.
The H77 and J4L6S strains were used for production of recombinant NS3/4A protease complexes. […] Briefly, a three-lysine solubilizing tail was added at the 3′-end of the NS4A coding region. […] Briefly, the NS3/4A protease complex expression was induced with 0.5 millimolar (mM) Isopropyl β-D-1-thiogalactopyranoside (IPTG) for 22 hours (h) at 20° C. […] The cells were resuspended in lysis buffer (10 mL/g) consisting of 25 mM N-(2-Hydroxyethyl)Piperazine-N′-(2-Ethane Sulfonic acid) (HEPES), pH 7.5, 20% glycerol, 500 mM Sodium Chloride (NaCl), 0.5% Triton X-100, 1 microgram/milliliter (“μg/mL”) lysozyme, 5 mM Magnesium Chloride (MgCl2), 1 gg/ml DnaseI, 5 mM β-Mercaptoethanol (βME), Protease inhibitor—Ethylenediamine Tetraacetic acid (EDTA) free (Roche), homogenized and incubated for 20 minutes (min) at 4° C. The homogenate was sonicated and clarified by ultra-centrifugation at 235000 g for 1 h at 4° C. […]

Sequences of proteins named here, by UniProt entry; tags and fusion partners are left off. Residues count along the entry.
UniProt P27958, 1027-1657: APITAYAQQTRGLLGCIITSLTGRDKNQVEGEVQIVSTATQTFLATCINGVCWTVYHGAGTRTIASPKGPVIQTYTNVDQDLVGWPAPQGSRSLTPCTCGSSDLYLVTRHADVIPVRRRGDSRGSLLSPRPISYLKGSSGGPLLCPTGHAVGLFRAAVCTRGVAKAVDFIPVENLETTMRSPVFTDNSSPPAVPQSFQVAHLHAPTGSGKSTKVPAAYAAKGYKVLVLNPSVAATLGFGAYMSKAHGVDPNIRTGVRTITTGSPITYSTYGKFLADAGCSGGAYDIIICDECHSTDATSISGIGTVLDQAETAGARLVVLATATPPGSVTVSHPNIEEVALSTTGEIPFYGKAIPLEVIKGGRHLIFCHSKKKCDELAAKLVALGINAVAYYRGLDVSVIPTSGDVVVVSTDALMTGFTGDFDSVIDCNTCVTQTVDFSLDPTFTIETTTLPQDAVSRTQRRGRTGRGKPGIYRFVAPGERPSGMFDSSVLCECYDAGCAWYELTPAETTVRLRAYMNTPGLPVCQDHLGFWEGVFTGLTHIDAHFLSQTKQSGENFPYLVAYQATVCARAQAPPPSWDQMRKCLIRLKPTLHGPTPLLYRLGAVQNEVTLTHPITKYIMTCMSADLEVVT

C=C[C@@H]1C[C@]1(NC(=O)[C@@H]1C[C@@H](Oc2nccc3cc(OC)ccc23)CN1C(=O)[C@@H](NC(=O)OC(C)(C)C)C(C)(C)C)C(=O)NS(=O)(=O)c1nc2ccc(OCC)cc2s1 [Compound 1002]
pIC50: 6.00 to 7.00

Reference: patent publication US7309708B2, “Hepatitis C virus inhibitors” (priority 2003, dated 2007)
